# In patent US20240018123A1, “COMPOUND FOR INHIBITING OR DISINTEGRATING ANDROGEN RECEPTOR, AND PHARMACEUTICAL USE THEREOF” (KOREA RESEARCH INSTITUTE OF CHEMICAL TECHNOLOGY, priority 2020, published 2024):
# Assays:
# [1] = tested on: LNCaP cells; test: Cytotoxicity assessment (Cell-titer-glo cell viability), LNCaP; details: read-out: LNCAP (CC50), 6 days of treatment, vs DMSO
# [2] = tested on: VCaP cells; test: Cytotoxicity assessment (Cell-titer-glo cell viability), VCaP; details: read-out: VCaP (CC50), 6 days of treatment, vs DMSO
Compound,CC50 [1] [µM],CC50 [2] [µM]
"CC1(C)C(NC(=O)c2ccc(N3CCN(Cc4cn(C5CCN(c6ccc7nnn(C8CCC(=O)NC8=O)c(=O)c7c6)CC5)nn4)CC3)cc2)C(C)(C)C1Oc1ccc(C#N)c(Cl)c1 (centres unmarked) [Example 105, N-((1r,3r)-3-(3-chloro-4-cyanophenoxy)-2,2,4,4-tetramethylcyclobutyl)-4-(4-((1-(1-(3-(2,6-dioxopiperidin-3-yl)-4-oxo-3,4-dihydrobenzo[d][1,2,3]triazin-6-yl)piperidin-4-yl)-1H-1,2,3-triazol-4-yl)methyl)piperazin-1-yl)benzamide]",0.026,
"N-((1r,3r)-3-(3-chloro-4-cyanophenoxy)-2,2,4,4-tetramethylcyclobutyl)-4-(4-(1-(3-(2,6-dioxopiperidin-3-yl)-4-oxo-3,4-dihydrobenzo[d][1,2,3]triazin-6-yl)azetidine-3-carbonyl)piperazin-1-yl)benzamide [Example 44]",,0.0259
